Literature values, collected in patent US4891377A, “Transdermal delivery of the narcotic analgesics etorphine and analogs” (dated 1990).
This is a selection: effects in other tests are not listed, and their absence says nothing.

Settings: previously reported

SMILES: CCC(=O)N(c1ccccc1)C1CCN(CCc2ccccc2)CC1
- extent of accumulation in human lungs relative to animals: exceed by far that seen in animals
- sequestration in human lungs: sequestered in human lungs and therefore bound to lung tissue
